{
  "source": "patent US10682361B2",
  "about": "“Sustained release bimatoprost, bimatoprost analogs, prostamides and prostaglandins for fat reduction” (ALLERGAN, INC., priority 2013, dated 2020)",
  "test": "2-D MR image after injection into gastrocnemius muscle (depot localization)",
  "assay_type": "in vivo",
  "conditions": "40 minutes post-injection, MGL and MGM muscle groups",
  "protocol": "The right leg was injected with HA/Albumin-Gadolinium, the left leg with Albumin-Gadolinium alone;\nThe right leg was injected with HA/Albumin-Gadolinium, the left leg with Albumin-Gadolinium alone.",
  "data": [
    {"substance": "Albumin-Gadolinium: Albumin-Gadolinium MR contrast marker injected alone into the left leg", "values": [
      {"measurement": "spread or localization in muscle on MR image", "value": "diffuse spread"}
    ]}
  ]
}
